In paper PMC4769084, “Aminoglycoside binding and catalysis specificity of aminoglycoside 2″-phosphotransferase IVa: A thermodynamic, structural and kinetic study” (Biochimica et Biophysica Acta, 2016):

System: Kanamycin A
Experiment: purified protein, by the assay type
Conditions: other: saturating MgATP (2.5 mM), aminoglycoside 0 to 100 μM, 25 °C, pH 7.5, na = no detectable activity

With “APH(2″)-IVa (Enterococcus casseliflavus)” the Km was 4.0 ± 0.5 µM, the kcat was 0.90 ± 0.02 s^− 1 and the kcat/Km was 0.225 μM^− 1 s^− 1.
